Measured values: patent publication US8563565B2, “Pyrazoloquinoline derivatives” (Eisai R&D Management Co., Ltd., priority 2011, dated 2013)

Sequences of proteins named here, by UniProt entry; tags and fusion partners are left off.
UniProt O76083, whole entry: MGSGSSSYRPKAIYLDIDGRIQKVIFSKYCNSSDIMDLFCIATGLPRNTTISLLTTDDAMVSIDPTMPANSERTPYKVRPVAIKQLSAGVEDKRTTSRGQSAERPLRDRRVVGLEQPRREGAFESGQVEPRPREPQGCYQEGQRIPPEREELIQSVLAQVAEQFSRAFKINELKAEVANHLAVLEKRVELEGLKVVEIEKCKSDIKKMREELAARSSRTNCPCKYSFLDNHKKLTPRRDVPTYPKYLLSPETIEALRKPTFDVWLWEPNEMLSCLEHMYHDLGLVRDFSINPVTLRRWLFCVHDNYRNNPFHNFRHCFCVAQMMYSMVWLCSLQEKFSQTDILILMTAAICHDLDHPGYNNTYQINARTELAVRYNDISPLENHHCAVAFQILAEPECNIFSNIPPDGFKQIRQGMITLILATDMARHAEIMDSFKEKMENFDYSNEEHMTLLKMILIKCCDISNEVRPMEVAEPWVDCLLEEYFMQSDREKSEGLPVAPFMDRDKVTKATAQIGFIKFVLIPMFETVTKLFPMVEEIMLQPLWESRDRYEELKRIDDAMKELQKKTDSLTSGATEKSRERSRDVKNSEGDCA

Molecular target: human recombinant PDE9 protein (Homo sapiens, UniProt O76083)
Assay: PDE9 inhibitory activity test (measurement of PDE9 inhibitory action, [3H]-cGMP)
Type: biochemical
Settings: read-out: PDE9 IC50; human recombinant PDE9, 30° C., 10 min

| SMILES | IC50 [nM] |
| --- | --- |
| Cc1cccc(C)c1-c1ccc2c(c1)[nH]c(=O)c1cnn(C3CCOC3)c12 (single isomer, unassigned) | 27.9 |
| COc1cc(C)c(-c2ccc3c(c2)[nH]c(=O)c2cnn(C4CCOC4)c23)c(CF)n1 (single isomer, unassigned) | 70.8 |
